Data reported in patent US20160139118.

Target: Amyloid Beta-Protein (1-42), P05067

B1: Complement factor I, purified human serum protein (Complement Technology) (protein)
chain: KVTYTSQEDLVEKKCLAKKYTHLSCDKVFCQPWQRCIEGTCVCKLPYQCPKNGTAVCATNRRSFPTYCQQKSLECLHPGTKFLNNGTCTAEGKFSVSLKHGNTDSEGIVEVKLVDQDKTMFICKSSWSMREANVACLDLGFQQGADTQRRFKLSDLSINSTECLHVHCRGLETSLAECTFTKRRTMGYQDFADVVCYTQKADSPMDDFFQCVNGKYISQMKACDGINDCGDQSDELCCKACQGKGFHCKSGVCIPSQYQCNGEVDCITGEDEVGCAGFASVTQEETEILTADMDAERRRIKSLLPKLSCGVKNRMHIRRKRIVGGKRAQLGDLPWQVAIKDASGITCGGIYIGGCWILTAAHCLRASKTHRYQIWTTVVDWIHPDLKRIVIEYVDRIIFHENYNAGTYQNDIALIEMKKDGNKKDCELPRSIPACVPWSPYLFQPNDTCIVSGWGREKDNERVFSLQWGEVKLISNCSKFYGNRFYEKEMECAGTYDGSIDACKGDSGGPLVCMDANNVTYVWGVVSWGENCGKPEFPGVYTKVANYFDWISYHVGRPFISQYNV
CFI needed to cleave 50% of the available C3b after preincubation with 200 µM BAM1-42 (re-analysis, 4-parameter logistic): after preincubation with BAM1-42, approximately 3200 ng/ml CFI equivalent were needed to achieve the same rate of cleavage
